Measurements from US7598223B2, “Methods for producing target cell reactive lymphocytes” (The Board of Trustees of the Leland Stanford Junior …, priority 2004, dated 2009).

Test system: T2 cells
Experiment: Determination of recognition efficiency (RE): 51Cr-release lysis of peptide-pulsed T2 targets by CTL clones
Format: cell-based, human
Conditions: target cells pulsed with native peptide
Description: FIGS. 3A-3J. Endogenous CTL clones have higher RE than vaccine-elicited CTL clones. CTL clones representing different tetramer^+ populations in each patient expressing different V-beta, were assayed for lysis of T2 cells pulsed with various dilutions of G209n, G209-2M, M27, or M26 peptides in ^51Cr-release cytotoxicity assays. All assays were performed in triplicate and each clone was assayed twice. Error bars reflect variation between two separate assays. 3a.-c. CTL clones 476.105 and 132.1 were assayed for lysis of T2 cells pulsed with 10-fold dilutions of a. native or c. heteroclitc peptide at concentrations ranging from 100 fg/ml to 100 ng/ml. b. CTL clones 476.105 and 132.1 were assayed for lysis of Malme-3M melanoma cells. d.-e. […] Correlation coefficients were 0.66 for MART-specific clones and 0.81 for gp100-specific clones. f.-i. Endogenous (461 and 132) and vaccine-induced (517, 520, 422 and 476) CTL clones were compared for RE in lysing target cells. f-g. Target cells were pulsed with native peptides (f.) M27 and (g.) G209n. Mean RE (weighted) for each response is indicated with horizontal bars. Weighted means were based on all clones, not only those assayed, and were estimated by summing the RE of each analyzed clone multiplied by the number of total clones expressing the same V-beta in each patient. Weighted means were: 517: 5.7; 520: 7.0; 461: 7.9; 422: 9.7; 476: 9.9; and 132: 11.2. […] Target cells were pulsed with heteroclitic peptides (h.) M26 and (i.) G209-2M. j. […]
2. Determination of recognition efficiency (RE): ^51Chromium (^51Cr)-labeled T2 targets were pulsed with a range of peptide concentrations, generally starting at 10^−7 M and decreasing by log steps to 10^−13 M. T cell clones were incubated with T2 targets at 10:1 E:T ratios for 4 hours, then ^51Cr release was measured and percentage cytotoxicity calculated by standard methods. Prior to each cytotoxicity assay, clones underwent ficoll-hypaque centrifugation to remove dead feeder cells, and were determined to be >80% CD8+ tetramer+ T cells by FACS. […]

Question: Which “Mean RE (weighted)” value (CTL clones of patient 461 (endogenous)) does the source give for “M27: native MART peptide used to pulse target cells [reference compound]” here?
Answer: 7.9

Question: What about the “Mean RE (weighted)” value (CTL clones of patient 517 (vaccine-induced)) of the same substance?
Answer: 5.7

Question: What about the “Mean RE (weighted)” value (CTL clones of patient 520 (vaccine-induced)) of the same substance?
Answer: 7.0
